Data from publication PMC9182007, “Statistical Methods in the Study of Protein Binding and Its Relationship to Drug Bioavailability in Breast Milk” (Molecules, 2022).

Sequences of proteins named here, by UniProt entry; tags and fusion partners are left off. Residues count along the entry.
UniProt P02769, 25-607: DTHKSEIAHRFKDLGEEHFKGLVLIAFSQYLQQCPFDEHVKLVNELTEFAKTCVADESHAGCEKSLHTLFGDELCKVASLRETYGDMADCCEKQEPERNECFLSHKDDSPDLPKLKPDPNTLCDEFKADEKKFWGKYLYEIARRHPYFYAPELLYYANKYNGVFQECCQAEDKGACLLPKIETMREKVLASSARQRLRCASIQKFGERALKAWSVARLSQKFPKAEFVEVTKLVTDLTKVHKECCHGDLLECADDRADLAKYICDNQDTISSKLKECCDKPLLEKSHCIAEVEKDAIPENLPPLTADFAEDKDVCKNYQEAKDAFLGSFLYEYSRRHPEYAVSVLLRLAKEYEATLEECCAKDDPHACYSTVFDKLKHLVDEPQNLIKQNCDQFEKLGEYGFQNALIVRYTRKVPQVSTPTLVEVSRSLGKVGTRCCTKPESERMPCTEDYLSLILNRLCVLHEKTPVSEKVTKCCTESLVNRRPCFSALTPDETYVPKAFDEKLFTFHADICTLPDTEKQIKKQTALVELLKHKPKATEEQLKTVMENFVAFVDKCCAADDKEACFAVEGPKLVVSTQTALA
UniProt P02768, 25-609: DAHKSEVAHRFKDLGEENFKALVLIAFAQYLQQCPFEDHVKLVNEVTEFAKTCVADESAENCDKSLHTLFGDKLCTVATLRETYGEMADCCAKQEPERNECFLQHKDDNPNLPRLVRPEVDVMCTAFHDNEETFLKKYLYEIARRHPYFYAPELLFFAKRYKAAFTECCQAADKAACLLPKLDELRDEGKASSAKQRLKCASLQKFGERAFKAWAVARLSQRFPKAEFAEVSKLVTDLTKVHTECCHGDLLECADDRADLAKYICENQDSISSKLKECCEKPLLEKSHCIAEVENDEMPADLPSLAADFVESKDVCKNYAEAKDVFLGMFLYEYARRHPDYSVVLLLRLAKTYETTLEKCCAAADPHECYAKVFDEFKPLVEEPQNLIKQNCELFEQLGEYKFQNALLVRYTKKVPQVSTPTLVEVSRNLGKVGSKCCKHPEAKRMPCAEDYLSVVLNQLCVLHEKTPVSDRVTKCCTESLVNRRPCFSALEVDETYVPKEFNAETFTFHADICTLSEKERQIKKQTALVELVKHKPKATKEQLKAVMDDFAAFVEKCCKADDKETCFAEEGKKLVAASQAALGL

Key:
[1] = Table S1; source not stated; cited from earlier work
[2] = cited from earlier work
[3] = Milk-to-plasma (M/P) drug concentration ratio obtained in vivo, from literature; details: Table S1, scale of drug penetration into milk 1-4
[4] = molecular target: T1, bovine serum albumin (BSA) (Bos taurus, UniProt P02769); assay: RP TLC on plates impregnated with bovine serum albumin; assay type: binding; details: for RP (Rf value from the RP plate impregnated with 2 mg/mL BSA solution): Table S8, external group; for RP (Rf, BSA-impregnated RP plate): Table S4, RP plate impregnated with 2 mg/mL BSA, pH 7.4 mobile phase
T1 construct: purchased Sigma Aldrich

[5] = molecular target: T1, bovine serum albumin (BSA); assay: NP TLC on plates impregnated with bovine serum albumin; assay type: binding; details: for NP (Rf, BSA-impregnated NP plate): Table S3, NP plate impregnated with 2 mg/mL BSA, pH 7.4 mobile phase
[6] = molecular target: human serum albumin (HSA) (Homo sapiens, UniProt P02768); details: pH 7.4
[7] = Table S1, coded 1/0; ref DrugBank [7]; cited from earlier work
[8] = NP TLC on non-impregnated control plates; assay type: physicochemical; details: Table S3, non-impregnated NP plate; acetonitrile/acetate buffer pH 7.4/methanol 60:20:20
plasma protein = details: Table S1, plasma protein binding given as fraction; ref DrugBank [7]; cited from earlier work
[9] = RP TLC on non-impregnated control plates; assay type: physicochemical; details: Table S4, non-impregnated RP plate; acetonitrile/acetate buffer pH 7.4/methanol 60:20:20
[10] = Table S1, milk/plasma drug concentration ratio, in vivo
[11] = Table S6, external group (n = 38)

With `Cc1nnc2n1-c1ccc(Cl)cc1C(c1ccccc1)=NC2` [alprazolam] as the compound, how does the BB vivo [1] read?
Its BB vivo is 0.019.

What about the M/P [2, 10] of the same compound?
Its M/P is 0.18.

What about the M/P code [3] of the same compound?
The M/P code was 1 (Code 1 corresponds to drugs with an M/P value <0.40—completely safe).

Which M/P [2, 10] does the source give for `CCC[C@@H]1C[C@@H](C(=O)N[C@@H]([C@H]2O[C@H](SC)[C@H](O)[C@@H](O)[C@H]2O)[C@H](C)Cl)N(C)C1` [clindamycin] here?
The M/P was 0.3.

And the M/P code [3]?
Its M/P code is 1 (Code 1 corresponds to drugs with an M/P value <0.40—completely safe).

With `CNCC[C@H](Oc1cccc2ccccc12)c1cccs1` [duloxetine] as the compound, how does the “RP (Rf value from the RP plate impregnated with 2 mg/mL BSA solution)” value [4] read?
The value was 0.53.

And the “NP (Rf value from the NP plate impregnated with 2 mg/mL BSA solution)” value ([5]; Table S8, external group)?
Its value is 0.33.

And the M/P [2, 11]?
The M/P was 0.78.

Which “k HSA” value [6] does the source give for `CN(C)CCC[C@@]1(c2ccc(F)cc2)OCc2cc(C#N)ccc21` [escitalopram] here?
Its value is 2.84.

What does the source list for `NC(N)=Nc1nc(CSCCC(N)=NS(N)(=O)=O)cs1` [famotidine]?
CNS+/- [7]: 1; M/P [2, 10]: 1.5; M/P code [3]: 4 (4 is M/P >1.20—dangerous)

With `CNCCC(Oc1ccc(C(F)(F)F)cc1)c1ccccc1` (stereo not shown) [fluoxetine] as the compound, how does the “k HSA” value [6] read?
Its value is 6.06.

What about the M/P [2, 10] of the same compound?
The M/P was 0.68.

For `CC(C)Cc1ccc(C(C)C(=O)O)cc1` (stereo not shown) [ibuprofen], which BB vivo [1] is on record?
Its BB vivo is -0.180.

Which results are given for `O=C1Nc2ccc(Cl)cc2C(c2ccccc2Cl)=NC1O` (stereo not shown) [lorazepam]?
CNS+/- [7]: 1; log k HSA [6]: 0.34; M/P [2, 10]: 0.205; M/P code [3]: 1 (Code 1 corresponds to drugs with an M/P value <0.40—completely safe)

For `Nc1cc(N2CCCCC2)nc(N)[n+]1[O-]` [minoxidil], which M/P [2, 11] is on record?
The M/P was 0.82.

Which “k HSA” value [6] does the source give for `CC(C)(O)c1ccccc1CC[C@@H](SCC1(CC(=O)O)CC1)c1cccc(/C=C/c2ccc3ccc(Cl)cc3n2)c1` [montelukast] here?
Its value is 0.19.

Which “CNP (Rf, control NP plate)” value [8] does the source give for `Cc1cc2c(s1)Nc1ccccc1N=C2N1CCN(C)CC1` [olanzapine] here?
Its value is 0.28.

What about the “RP (Rf, BSA-impregnated RP plate)” value [4] of the same compound?
Its value is 0.50.

What about the PB (plasma protein) of the same compound?
Its PB is 0.175.

And the “NP (Rf, BSA-impregnated NP plate)” value [5]?
Its value is 0.29.

What about the M/P [2, 10] of the same compound?
The M/P was 0.38.

And the “CRP (Rf, control RP plate)” value [9]?
Its value is 0.53.

Which BB vivo [1] does the source give for `Cc1nc2n(c(=O)c1CCN1CCC(c3noc4cc(F)ccc34)CC1)CCCC2` [risperidone] here?
Its BB vivo is -0.020.

What about the “CNP (Rf, control NP plate)” value [8] of the same compound?
Its value is 0.29.

What about the “RP (Rf, BSA-impregnated RP plate)” value [4] of the same compound?
The value was 0.58.

And the “NP (Rf, BSA-impregnated NP plate)” value [5]?
Its value is 0.29.

What about the M/P [2, 10] of the same compound?
The M/P was 0.26.

What about the “CRP (Rf, control RP plate)” value [9] of the same compound?
The value was 0.62.

For `CCN1CCCC1CNC(=O)c1cc(S(N)(=O)=O)ccc1OC` (stereo not shown) [sulpiride], which “k HSA” value [6] is on record?
Its value is 1.45.

For `COc1cccc(C2(O)CCCCC2CN(C)C)c1` (stereo not shown) [tramadol], which “RP (Rf value from the RP plate impregnated with 2 mg/mL BSA solution)” value [4] is on record?
The value was 0.64.

Which “RP (Rf, BSA-impregnated RP plate)” value [4] does the source give for `Cc1ccc(-c2nc3ccc(C)cn3c2CC(=O)N(C)C)cc1` [zolpidem] here?
Its value is 0.77.

And the “log k HSA” value [6]?
Its value is 0.25.

And the “NP (Rf, BSA-impregnated NP plate)” value [5]?
The value was 0.88.

What about the M/P [2, 10] of the same compound?
The M/P was 0.15.

And the M/P code [3]?
The M/P code was 1 (Code 1 corresponds to drugs with an M/P value <0.40—completely safe).

Read-outs that look alike come from different tables or passages of the source.
